The numbers were not newly measured in patent US4461901A, “Pyridyl containing 1,2-benzisothiazole-3-amine derivatives” (American Home Products Corporation, priority 1983, dated 1984), which cites them from elsewhere.

Each structure is given as a SMILES string.

This series has as its system H2 histamine receptors. The following applies: background statement; cited from earlier work.

With `CNC(=C[N+](=O)[O-])NCCSCc1ccc(CN(C)C)o1` [ranitidine], the “selective H2 antagonist activity versus cimetidine” value is reported as “greater activity than cimetidine”.
